Laboratory results reported in US9475840B2, “Protease-resistant compounds useful as shuttles through the blood-brain barrier and shuttle-cargo constructs” (UNIVERSITAT DE BARCELONA, priority 2012, dated 2016).

Tested on: co-culture of brain endothelial cells and astrocytes
Experiment: Transport across the BBB, in vitro co-culture cell assay (transwell)
Conditions: percentage of transport after a 2 hours assay; — = not detected in acceptor compartment

Substance	Transport (%) (2 h)
Rhodamine b-L-Lys(Antibody)-D-Pro-D-Trp-D-Val-D-Pro-D-Ser-D-Trp-D-Met-D-Pro-D-Pro-D-Arg-D-His-D-Thr-NH2 [Example 17]	0.13 ± 0.08
Rhodamine b-L-Lys(Antibody)-D-Pro-D-Trp-D-Val-D-Pro-D-Ser-D-Trp-D-Met-D-Pro-D-Pro-D-Arg-D-His-D-Thr-NH2 [Example 20]	0.30 ± 0.16
Rhodamine b-L-Lys(Antibody)-D-Pro-D-Trp-D-Val-D-Pro-D-Ser-D-Trp-D-Met-D-Pro-D-Pro-D-Arg-D-His-D-Thr-NH2 [Example 18]	0.15 ± 0.04
